# CDK5 inh – inhibitors of human CDK5/p35 kinase, primary screen, biochemical, single concentration | Cyclin-dependent kinase 5 (Homo sapiens) + Cyclin-dependent kinase 5 activator 1 (Homo … | Recombinant CDK5/p35, ADP-Glo luminescence, 60 min | inhibition, % at 10 µM | 330,000 compounds, 0.01% hits;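 active = highest replicate inhibition of at least 50% and at least 75% of replicates reaching 50%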;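 note: plate controls were DMSO neutral control for no effect and GW8510 at 10 µM for full effect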
# dFosB act – activators of delta FosB homodimer, primary screen, biochemical, fluorescence polarization, TAMRA-CDK5 oligo, single point | purified delta FosB; percent of positive-control signal above neutral wells | Protein FosB (Mus musculus), P13346 | activation, % at 25 µM | AID 493131, 2011 | 340,000 compounds, 0.99% hits;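 active = mean activation above about 17%, with every replicate also reaching it, limit read from the data, passing the limit was not always enough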
# Dyrk1A ADPGlo – rat Dyrk1A kinase inhibitors, primary screen, biochemical, single point, plate reader; ADP-Glo luminescence, NFATc1 peptide; inhibition, % at 12.5 µM; 310,000 compounds, 0.43% hits; AID 504441, 2011; in the data active = inhibition above about 50%;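 note: plate controls were vehicle with enzyme for no effect and no enzyme for full effect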
# CAL PDZ FP-1 – untagged CAL PDZ binding inhibitors, primary screen, biochemical, fluorescence polarization, HTS | Golgi-associated PDZ and coiled-coil motif-containing protein (Homo sapiens), Q9HD26 | purified CAL PDZ, TMR-peptide fluorescence polarization, 1 h | inhibition, % at 24.9 µM | 300,000 compounds, 0.92% hits | AID 602252, 2012;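 active = mean inhibition of at least 30% with at least half of replicates also reaching 30%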;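 note: 0% = DMSO neutral control and 100% = excess unlabeled competitor peptide PRC23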
# UUG fidelity – modulators of start codon recognition fidelity in yeast. S. cerevisiae UUG-firefly luciferase reporter, luminescence/redox ratio. activity score, % at 18.7 µM. 0.13% of 350,000 active. AID 602363;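 active = replicate mean at a twofold rise or more, about +100% in these data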;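 also: firefly luciferase made from a UUG start codon reports start codon fidelity; reporter light over untreated wells divided by growth signal over untreated wells; some hits fall short of that in this replicate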
# CAL PDZ FP-2 – CAL PDZ peptide-binding inhibitors, primary screen, biochemical, fluorescence polarization, Cer-tagged CAL PDZ, HTS; Golgi-associated PDZ and coiled-coil motif-containing protein (Homo sapiens), Q9HD26; purified CAL PDZ, TMR-peptide fluorescence polarization, 1 h; inhibition, % at 20 µM; 330,000 compounds, 0.02% hits; AID 504414, 2011;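 active = highest replicate inhibition of at least 40%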;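 note: plate controls were DMSO neutral control wells for no effect and unlabeled competitor peptide control wells for full effect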
#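 Read-out basis: mP drop reported as inhibition | Assay system: Tagged CAL PDZ protein CerCALP, purified | Benchmarks: Unlabelled peptide for full inhibition, DMSO wells as neutral | Schedule: 1 h incubation at room temperature before polarization reading | Buffer or medium: Sodium phosphate/NaCl buffer pH 7.4 with TCEP, IgG, Thesit | Doses: Single point, 20 µM | Measured by: Fluorescence polarization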
# Starred values were filed as active, the others as inactive; . = not tested or not shown. Compounds with a hit are over-represented: about 1.7% of the library has one in this group of screens.
# The first 2 records, to show the layout:
# Assay codes – A = CDK5 inh; B = dFosB act; C = Dyrk1A ADPGlo; D = CAL PDZ FP-1; E = UUG fidelity; F = CAL PDZ FP-2
> COc1cc(NC(=O)c2ccco2)c(OC)cc1NC(=O)c1cc(OC)c(OC)c(OC)c1
  A: -1.1 | B: -10.9 | C: 3.0 | D: 97.0* | E: -19.5 | F: -0.3
> COc1ccccc1CNC(=O)C[C@@H]1C=C[C@H](NC(C)=O)[C@@H](CO)O1
  A: . | B: . | C: . | D: . | E: -19.1 | F: .

# The list itself, repeating the preview:
# Assay codes – A = CDK5 inh; B = dFosB act; C = Dyrk1A ADPGlo; D = CAL PDZ FP-1; E = UUG fidelity; F = CAL PDZ FP-2
> COc1cc(NC(=O)c2ccco2)c(OC)cc1NC(=O)c1cc(OC)c(OC)c(OC)c1
  A: -1.1 | B: -10.9 | C: 3.0 | D: 97.0* | E: -19.5 | F: -0.3
> COc1ccccc1CNC(=O)C[C@@H]1C=C[C@H](NC(C)=O)[C@@H](CO)O1
  A: . | B: . | C: . | D: . | E: -19.1 | F: .
> COc1ccccc1NC(=O)C1CCN(C(=O)NCc2ccccc2)CC1
  A: 1.4 | B: -3.7 | C: -7.1 | D: 55.6* | E: 6.1 | F: -0.2
> C[C@@H]1CCCCO[C@H](CN(C)S(=O)(=O)c2ccc(F)cc2)[C@H](C)CN([C@H](C)CO)C(=O)c2cc(NC(=O)C3CCCCC3)ccc2O1
  A: . | B: . | C: . | D: . | E: 3.7 | F: .
> Cc1ccccc1C(=O)NN1C(=O)CSC1=S
  A: -1.0 | B: 4.5 | C: 0.7 | D: -6.0 | E: -11.9 | F: 1.0
> O=C1CSC(=S)N1Nc1ccccc1
  A: -2.3 | B: 7.1 | C: -3.7 | D: 52.6* | E: -20.2 | F: 28.3
> Cc1ccc(N2C(=O)C3C(C2=O)C(C(=O)c2ccc(Cl)cc2)N2CCCC32)cc1 (configuration not stated)
  A: 0.7 | B: 1.4 | C: -1.3 | D: 41.9* | E: -12.1 | F: 0.0
> O=C(N/N=C/c1cccn1-c1ccc(O)cc1)c1cccc2ccccc12
  A: 1.7 | B: 22.4* | C: -1.2 | D: -4.0 | E: -14.9 | F: -0.3
> CCNC(=O)[C@H]1[C@H](CO)[C@H]2Cn3c(ccc(C4=CCCCC4)c3=O)[C@H]2N1Cc1ccccc1F
  A: . | B: . | C: . | D: . | E: 25.7 | F: .
> CCCCN(C)CC(O)Cn1cc(/C=C/C(=O)c2ccc(C)cc2)c2ccccc21 (configuration not stated)
  A: 0.8 | B: 25.8* | C: 10.6 | D: -2.7 | E: -18.9 | F: 0.1
> OC(CNCC(c1ccc(Cl)cc1Cl)c1c[nH]c2ccccc12)c1ccccc1 (configuration not stated)
  A: -0.7 | B: 83.4* | C: -3.8 | D: -1.9 | E: -8.2 | F: -2.4
> CCC(=O)N1[C@H](CO)[C@H]2c3ccccc3N(C(=O)c3cccc(OC)c3)C[C@H]21
  A: . | B: . | C: . | D: . | E: -17.8 | F: .
> C[C@H](NC(=O)N1CCn2c1nc1ccccc12)C(=O)N1CCCCC1
  A: 0.6 | B: -4.8 | C: -1.4 | D: 41.6* | E: -10.8 | F: -0.3
> O=S1(=O)CC/C(=N\Nc2ccccc2)c2ccsc21
  A: 2.2 | B: -2.5 | C: -19.2 | D: 33.2* | E: . | F: -0.8
> COc1ccccc1CNC(=O)C[C@H]1CC[C@H](NC(=O)CC2CC2)[C@H](CO)O1
  A: . | B: . | C: . | D: . | E: -10.3 | F: .
> CCN(CC)c1ccc(NC(=O)C2CC(=O)N(Cc3ccccc3)C2)cc1 (configuration not stated)
  A: 0.8 | B: -6.4 | C: . | D: 100.8* | E: . | F: -0.8
> CN(C)S(=O)(=O)c1ccc(NC(=O)C2CC(=O)N(Cc3ccccc3)C2)cc1 (configuration not stated)
  A: -1.4 | B: -4.3 | C: -0.3 | D: -1.9 | E: . | F: -2.5
> COc1ccc(C2C(C(=O)c3ccco3)=C(O)C(=O)N2CC2CCCO2)cc1OC (configuration not stated)
  A: 0.8 | B: 1.7 | C: -0.4 | D: 52.0* | E: 0.5 | F: 0.0
> COc1cc(NC2c3ccccc3C(=O)N2Cc2ccccc2)cc(OC)c1OC (configuration not stated)
  A: 2.1 | B: -7.2 | C: -4.9 | D: -13.6 | E: 6.5 | F: -1.5
> CC(C)CCNC1c2ccccc2C(=O)N1Cc1ccccc1 (configuration not stated)
  A: 0.6 | B: -11.8 | C: -4.1 | D: 87.9* | E: 3.7 | F: .
> O=C(O)C1CCCN1c1nc(-c2ccc(Cl)c(Cl)c2)cc(C(F)(F)F)n1 (configuration not stated)
  A: -0.2 | B: -9.8 | C: -2.3 | D: 90.6* | E: -2.2 | F: -2.3
> FC(F)(F)c1cc(-c2ccccc2)nc(N2CCCCC2)n1
  A: 0.5 | B: 3.3 | C: 0.8 | D: -3.8 | E: -18.0 | F: 1.1
> CCCNC(=O)C[C@H]1CC[C@@H]2[C@@H](COc3ccc(NC(=O)c4ccc(C(F)(F)F)cc4)cc3C(=O)N2C)O1
  A: . | B: . | C: . | D: . | E: 11.8 | F: .
> CCc1ccc(Oc2ncnc(N)c2[N+](=O)[O-])cc1
  A: -0.2 | B: 0.4 | C: 3.9 | D: 66.7* | E: . | F: -1.6
> CCNC(=O)c1ccccc1NC(=O)C1CC(=O)N(C(C)C)C1 (configuration not stated)
  A: 0.5 | B: 3.8 | C: -4.8 | D: 61.9* | E: 2.2 | F: 3.1
> C=CCn1c(O)c(/C=C2\C=NN=C2c2ccccc2)sc1=S
  A: -1.7 | B: 10.5 | C: -6.2 | D: 51.7* | E: . | F: -1.1
> COc1ccc(NC(=O)NC2(C(=O)N3CCCCCC3)CCCCC2)cc1
  A: -1.5 | B: -2.3 | C: -4.1 | D: -2.0 | E: -19.6 | F: -4.2
> COc1ccc(NC(=O)NC2(C(=O)N3CCN(C)CC3)CCCCC2)cc1
  A: 0.3 | B: 1.8 | C: 2.7 | D: 60.9* | E: -11.2 | F: 9.6
> CO[C@H]1CN(C)C(=O)c2cc(NC(=O)c3ccc(F)cc3)ccc2OC[C@H](C)N(C(=O)CN(C)C)C[C@@H]1C
  A: . | B: . | C: . | D: . | E: 13.7 | F: .
> Cc1cc(C)c2c(N)c3cccc(C)c3nc2n1
  A: -0.5 | B: 49.3* | C: 3.5 | D: -6.3 | E: . | F: -0.9
> C[C@H](CO)N1C[C@H](C)[C@@H](CN(C)S(=O)(=O)c2ccc(F)cc2)OCCCC[C@H](C)Oc2ccc(NC(=O)CCC(F)(F)F)cc2C1=O
  A: . | B: . | C: . | D: . | E: 9.4 | F: .
> O=C1CCNc2cc3ccccc3cc21
  A: -1.8 | B: 0.2 | C: 76.1* | D: 7.8 | E: -14.3 | F: -0.1
> CCn1cc(C2=NC(CC(C)C)CO2)c2ccccc21 (configuration not stated)
  A: -1.3 | B: 0.6 | C: 7.2 | D: 65.4* | E: . | F: -2.4
> Cc1noc(C)c1S(=O)(=O)Nc1ccc2c(c1)CC(=O)N([C@@H](C)CO)C[C@H](C)[C@@H](CN(C)S(C)(=O)=O)O2
  A: . | B: . | C: . | D: . | E: -7.7 | F: .
> CO[C@H]1CN(C)C(=O)c2ccc(NC(=O)C3CCOCC3)cc2OC[C@@H](C)N(Cc2cccnc2)C[C@H]1C
  A: . | B: . | C: . | D: . | E: 0.7 | F: .
> Cc1cnc(C(=O)N2CCN(S(=O)(=O)c3cc(C(F)(F)F)cc(C(F)(F)F)c3)CC2)cn1
  A: -3.3 | B: -11.0 | C: -4.3 | D: -4.1 | E: -10.8 | F: 0.6
> CC1CC1C(=O)N1CCN(S(=O)(=O)c2cc(C(F)(F)F)cc(C(F)(F)F)c2)CC1 (configuration not stated)
  A: 1.5 | B: -6.9 | C: . | D: 76.2* | E: -11.2 | F: -0.1
> Cc1ccc(-c2cc(-c3c(C)nn(C)c(=O)c3N)[nH]n2)cc1
  A: -1.1 | B: -7.7 | C: -8.8 | D: 41.5* | E: -7.0 | F: 0.2
> O=C(c1ccncc1)N1C[C@H]2[C@@H](c3ccccc31)[C@@H](CO)N2C(=O)Nc1ccc(F)cc1
  A: . | B: . | C: . | D: . | E: 86.8 | F: .
> O=C(OCC(=O)N1CCOCC1)c1ccccc1O
  A: -0.7 | B: 3.2 | C: -3.7 | D: -7.1 | E: -11.7 | F: -0.6
> O=C(OCC(=O)N1CCOCC1)c1ccc(O)cc1
  A: 2.7 | B: 1.6 | C: 8.3 | D: 126.5* | E: -15.2 | F: 0.4
> O=C(OCC(=O)N1CCC(Cc2ccccc2)CC1)c1ccccc1
  A: -2.3 | B: -9.3 | C: . | D: 31.2* | E: . | F: -2.2
> O=C(OCC(=O)N1CCC(Cc2ccccc2)CC1)c1ccc(O)cc1
  A: . | B: . | C: . | D: . | E: -3.7 | F: .

# Results in CDK5 inh, for two of the compounds above:
structure | CDK5 inh
Cc1cnc(C(=O)N2CCN(S(=O)(=O)c3cc(C(F)(F)F)cc(C(F)(F)F)c3)CC2)cn1 | -3.3
O=C(OCC(=O)N1CCOCC1)c1ccc(O)cc1 | 2.7
